Data published in patent publication US20250388575A1, “HETEROBIFUNCTIONAL COMPOUNDS AND METHODS OF TREATING DISEASE” (Halda Therapeutics OpCo, Inc., priority 2022, published 2025).

By UniProt entry, the sequences of proteins in these tests, tags left out. Residues count along the entry.
UniProt P06401, 679-913 limits assumed: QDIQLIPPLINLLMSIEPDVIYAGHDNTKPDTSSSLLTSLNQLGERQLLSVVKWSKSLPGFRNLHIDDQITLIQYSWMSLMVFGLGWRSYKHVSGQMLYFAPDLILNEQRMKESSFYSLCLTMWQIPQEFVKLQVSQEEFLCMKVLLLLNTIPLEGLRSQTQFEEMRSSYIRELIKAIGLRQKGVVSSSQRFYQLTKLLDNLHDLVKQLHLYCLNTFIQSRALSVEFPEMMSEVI

Assays:
BRD4-BD1 = BRD4-BD1 (Homo sapiens (Human), UniProt O60885); assay: bromoKdELECT assay for binding affinity to BRD4-BD1; conditions: 11-point 3-fold dilution
Procedure: (§1) Compounds were tested using a bromoKdELECT assay. T7 phage strains displaying bromodomains were grown in parallel in 24-well blocks in an E. coli host derived from the BL21 strain. E. coli were grown to log-phase and infected with T7 phage from a frozen stock (multiplicity of infection=0.4) and incubated with shaking at 32° C. until lysis (90-150 minutes). The lysates were centrifuged (5,000×g) and filtered (0.2 μm) to remove cell debris. Streptavidin-coated magnetic beads were treated with biotinylated small molecule or acetylated peptide ligands for 30 minutes at room temperature to generate affinity resins for bromodomain assays. The liganded beads were blocked with excess biotin and washed with blocking buffer (SeaBlock (Pierce), 1% BSA, 0.05% Tween 20, 1 mM DTT) to remove unbound ligand and to reduce nonspecific phage binding. Binding reactions were assembled by combining bromodomains, liganded affinity beads, and test compounds in 1× binding buffer (17% SeaBlock, 0.33×PBS, 0.04% Tween 20, 0.02% BSA, 0.004% Sodium azide, 7.4 mM DTT). Test compounds were prepared as 1000× stocks in 100% DMSO. Kds were determined using an 11-point 3-fold compound dilution series with one DMSO control point. All compounds for Kd measurements are distributed by acoustic transfer (non-contact dispensing) in 100% DMSO. The compounds were then diluted directly into the assays such that the final concentration of DMSO was 0.09%. All reactions performed in polypropylene 384-well plates. Each was a final volume of 0.02 ml. The assay plates were incubated at room temperature with shaking for 1 hour and the affinity beads were washed with wash buffer (1×PBS, 0.05% Tween 20). The beads were then resuspended in elution buffer (1×PBS, 0.05% Tween 20, 2 μM non-biotinylated affinity ligand) and incubated at room temperature with shaking for 30 minutes. The bromodomain concentration in the eluates was measured by qPCR.

BRD4-BD2 = BRD4-BD2 (Homo sapiens (Human), UniProt O60885); assay: bromoKdELECT assay for binding affinity to BRD4-BD2; conditions: 11-point 3-fold dilution
Procedure: as §1

[1] = tested on: T-Rex 293 cell line SC3 cells having increased expression of androgen receptor protein; assay: Cellular growth inhibition, T-Rex 293 SC3 cells with increased androgen receptor expression (doxycycline), CellTiter-Glo; conditions: T-Rex 293 SC3 cells with increased androgen receptor expression (exposed to 10 ng/mL doxycycline), 72 hours
Procedure: (§2) The following types of cells were prepared for this experiment: (i) a T-Rex 293 cell line having increased expression of androgen receptor protein due to exposure to doxycycline and (ii) a T-Rex 293 cell line lacking increased expression of androgen receptor protein. Ability of the test compounds to inhibit proliferation of the foregoing cell types was evaluated according to the procedures set forth below.
(§3) The doxycycline-inducible androgen receptor protein expressing cell line was established using the following protocol: T-Rex 293 cells were purchased from Invitrogen (Cat #R71007) and transfected using Lipofectamine 2000 with the wild-type androgen receptor protein sequence cloned into the pcDNA4/TO vector. Transfected cells were selected using 400 μg/mL Zeocin (Invitrogen Cat #R25001). Following selection, single clones were raised and maintained in Dulbecco's Modified Eagle Medium (DMEM) supplemented with 10% w/w Tetracycline-free fetal bovine serum (FBS) and 250 μg/mL Zeocin. Clones were analyzed for expression of androgen receptor protein in the presence and absence of 10 ng/ml doxycycline (Sigma Cat #D9891), and a single doxycycline-inducible clone (hereinafter “SC3”) was selected for use in downstream assays.
(§4) The SC3 cells were seeded on poly-D-lysine coated, black clear-bottom 384-well plates at 2500/well, in 25 μL Phenol Red Free Dulbecco's Modified Eagle Medium (DMEM) supplemented with 10% w/w charcoal-dextran treated fetal bovine serum (FBS) and 1% w/w pen-strep, with or without 10 ng/mL doxycycline. Pen-Strep is a commercially available mixture of penicillin G and streptomycin, which is used in mammalian cell culture media to prevent bacterial contamination. Phenol Red Free Dulbecco's Modified Eagle Medium (DMEM) supplemented with 10% w/w charcoal-dextran treated fetal bovine serum (FBS) and 1% w/w pen-strep, with or without 10 ng/mL doxycycline is herein referred to as Treatment Medium. Following seeding of cells in the plates, the plates were spun at 300×g for 30 seconds, then equilibrated to room temperature for 30 minutes, and then deposited in a humidified tissue culture incubator maintained at 37° C. with 5% CO2.
(§5) At 24 hours after seeding of the cells, dilutions of test compound were prepared in DMSO and dissolved in Treatment Medium, to achieve a final DMSO concentration of 0.5% w/w, thereby providing the Test Compound Solution. A 25 μL aliquot of the Test Compound Solution was added to cells in the well plates. An equal volume of a solution containing DMSO and Treatment Medium was used as a negative control. Following treatment of cells with Test Compound Solution or said equal volume of a solution containing DMSO and Treatment Medium, the plates were spun at 300×g for 30 seconds, and then left in an incubator for 72 hours.
(§6) At the end of the treatment duration, cell viability was quantified with CellTiter-Glo 2.0 reagent (Promega Cat #G9243). For this purpose, plates were equilibrated to room temperature for 30 minutes, and then 25 μL of CellTiter-Glo 2.0 reagent was added to cells in the plate wells. Plates were then agitated on a shaker for two minutes at 500 rpm and subsequently incubated at room temperature for 10 minutes. Following incubation, the plates were spun at 3000×g for 30 seconds, then sealed with an optical adhesive cover, and luminescence readings were measured with an EnVision Plate Reader.
(§7) Data was normalized using zero luminescence for baseline. […]

[2] = tested on: T-Rex 293 cell line SC3 cells lacking increased expression of androgen receptor protein; assay: Cellular growth inhibition, T-Rex 293 SC3 cells lacking increased androgen receptor expression (no doxycycline), CellTiter-Glo; conditions: T-Rex 293 SC3 cells lacking increased androgen receptor expression (not exposed to doxycycline), 72 hours
Procedure: as §2, §3, §4, §5, §6, §7

VCaP cells = assay: Cellular growth inhibition assay for VCaP cells, CellTiter-Glo; conditions: 72 hours
Procedure: VCaP cells were purchased from American Type Cell Culture (ATCC Cat #CRL2876) and then seeded on poly-D-lysine coated, black clear-bottom 384-well plates at 5000/well in 25 μL Dulbecco's Modified Eagle Medium (DMEM) supplemented with 10% w/w Fetal bovine serum (FBS) and 1% w/w Pen-Strep. Pen-Strep is a commercially available mixture of penicillin G and streptomycin, which is used in mammalian cell culture media to prevent bacterial contamination. Dulbecco's Modified Eagle Medium (DMEM) supplemented with 10% w/w fetal bovine serum (FBS) and 1% w/w Pen-Strep is herein referred to as Treatment Medium. Following seeding of cells in the plates, the plates were spun at 300×g for 30 seconds, then equilibrated to room temperature for 30 minutes, and then deposited in a humidified tissue culture incubator maintained at 37° C. with 5% CO2.
as §5, §6
Data was normalized using zero luminescence for baseline. A four-parameter non-linear regression curve fit was applied to dose-response data in GraphPad Prism data analysis software to determine the half-maximal growth inhibitory concentration (GI50) for each test compound.

T47D cells = assay: Cellular growth inhibition assay for T47D cells, CellTiter-Glo; conditions: 72 hours treatment, CellTiter-Glo 2.0
Procedure: T47D cells were purchased from American Type Cell Culture (ATCC Cat #HTB-133) and then seeded on poly-D-lysine coated, black clear-bottom 384-well plates at 3000/well in 25 μL Dulbecco's Modified Eagle Medium (DMEM) supplemented with 10% w/w Fetal bovine serum (FBS), 0.2 units/mL recombinant human insulin (Gibco Cat #12585014), and 1% w/w Pen-Strep. Pen-Strep is a commercially available mixture of penicillin G and streptomycin, which is used in mammalian cell culture media to prevent bacterial contamination. Dulbecco's Modified Eagle Medium (DMEM) supplemented with 10% w/w fetal bovine serum (FBS), 0.2 units/mL recombinant human insulin, and 1% w/w Pen-Strep is herein referred to as Treatment Medium. Following seeding of cells in the plates, the plates were spun at 300×g for 30 seconds, then equilibrated to room temperature for 30 minutes, and then deposited in a humidified tissue culture incubator maintained at 37° C. with 5% CO2. […]
At the end of the treatment duration, cell viability was quantified with CellTiter-Glo 2.0 reagent (Promega Cat #G9243). […] Following incubation, the plates were spun at 3000×g for 30 seconds, then sealed with an optical adhesive cover, and luminescence readings were measured with an EnVision Plate Reader (Perkin Elmer).
as §7

[3] = target: progesterone receptor ligand binding domain (LBD) (Homo sapiens (Human), UniProt P06401); assay: FP assay for binding affinity to progesterone receptor (PolarScreen Progesterone Receptor Competitor Assay); conditions: GST-tagged PR LBD, Fluormone tracer, fluorescence polarization, 2 hours at room temperature
Procedure: Compounds were tested using the PolarScreen™ Progesterone Receptor Competitor Assay Kit (Life Technologies Cat #A15905 or a15906), as per the manufacturer's instructions. Briefly, GST-tagged PR LBD, Fluormone tracer, and compound were mixed and incubated for 2 hours at room temperature in the dark. Following incubation, the plates were spun at 3000×g for 30 seconds, then sealed with an optical adhesive cover, and fluorescence polarization was measured using appropriate excitation and emission filters with an EnVision Plate Reader (Perkin Elmer). Compound concentration vs. mP value were plotted in Prism (GraphPad). A four-parameter non-linear regression curve fit was applied to dose-response data to determine the half-maximal inhibitory concentration (IC50) for each test compound.

Row | Compound | Kd (BRD4-BD1) [nM] | Kd (BRD4-BD2) [nM] | GI50 [1] [nM] | GI50 [2] [nM] | GI50 (VCaP cells) [nM] | GI50 (T47D cells) [nM] | IC50 [3] [nM]
1 | CCS(=O)(=O)Nc1ccc(Oc2ccc(OCC3CCN(c4ccc(C(=O)N[C@H]5CC[C@H](Oc6ccc(C#N)c(Cl)c6)CC5)nn4)CC3)cc2)c(-c2cn(C)c(=O)c3[nH]ccc23)c1 | 50 to 500 | 50 to 500 | < 500 | 1500 to 3000 | < 500 | – | –
2 | CCS(=O)(=O)Nc1ccc(OCC(OCCOC2CCN(c3ccc(C(=O)N[C@H]4CC[C@H](Oc5ccc(C#N)c(Cl)c5)CC4)nn3)CC2)C2CC2)c(-c2cn(C)c(=O)c3[nH]ccc23)c1 (stereo partly shown) | 50 to 500 | 50 to 500 | < 500 | > 3000 | < 500 | – | –
3 | Cn1cc(-c2cc(C(C)(C)O)ccc2Oc2ccc(CCOC3CCN(c4ccc(C(=O)N[C@H]5CC[C@H](Oc6ccc(C#N)c(Cl)c6)CC5)nn4)CC3)c(F)c2F)c2cc[nH]c2c1=O | 500 to 2500 | 500 to 2500 | < 500 | < 500 | < 500 | < 500 | 50 to 500
4 | Cn1cc(-c2cc(C(C)(C)O)ccc2Oc2ccc(CCC3CCN(c4ccc(C(=O)N[C@H]5CC[C@H](Oc6ccc(C#N)c(Cl)c6)CC5)nn4)CC3)nc2)c2cc[nH]c2c1=O | 50 to 500 | 50 to 500 | < 500 | 500 to 1500 | < 500 | < 500 | –
5 | CCS(=O)(=O)Nc1ccc(Oc2ccc(CCCOC3CCN(c4ccc(C(=O)N[C@H]5CC[C@H](Oc6ccc(C#N)c(Cl)c6)CC5)nn4)CC3)cc2)c(-c2cn(C)c(=O)c3[nH]ccc23)c1 | 50 to 500 | 50 to 500 | < 500 | < 500 | < 500 | – | –
